Test results: patent US20250127912A1, “COMPOSITIONS FOR DELIVERY OF POLYNUCLEOTIDES” (miRecule, Inc., priority 2021, published 2025)
Non-standard residues stand in square brackets, D forms with d. Groups on a side chain read outwards from the residue. Primed or numbered codes have the meaning given here. No end group written: not given here. Maleimide‑BranchedPEG1.5kda = maleimide-linked branched PEG of 1.5 kDa; PEG12′ = PEG12 polymer (polyethylene glycol, 12 units); PEG1000 = N-terminal 1 kDa PEG spacer; PEG5000 = N-terminal 5 kDa PEG spacer; PEG2000 = PEG polymer of 2000 Da

Experiment: Precipitation/aggregation of Cetux-PEG4-Azide-DCBO-PEG5-M30m3 (DAR2) mixed with cationic peptides, hybrid polymers or cationic polymers
Conditions: peptide/hybrid polymer mixed in water with Cetux-PEG4-Azide-DCBO-PEG5-M30m3 (DAR2) at 1:1 or 1:2 -charge/+charge ratio; spun 15,000g 15 min; visual inspection and microscopy

Row | Substance | Precipitated or Aggregated
1 | RRRRRRRRRRRR-[NHS Ester-BranchedPEG2kda] [PolyArg12bp2kDa] | N
2 | RRRRRRRRRRRRC-[Maleimide-BranchedPEG1.5kda] (RRRRRRRRRRRRC([maleimide-branched PEG 1.5 kDa])) [PolyArg12Cbp1.5kDa] | N
3 | RRRRRRRRRRRRC-[Maleimide-BranchedPEG2kda] (RRRRRRRRRRRRC([maleimide-branched PEG 2 kDa])) [PolyArg12Cbp2kDa] | N
4 | RRRRRRRRRRRRC-[Maleimide-BranchedPEG3.9kda] (RRRRRRRRRRRRC([maleimide-branched PEG 3.9 kDa])) [PolyArg12Cbp3.9kDa] | N
5 | RRRRRRRRRRRRC-[Maleimide-BranchedPEG16kda] (RRRRRRRRRRRRC([maleimide-branched PEG 16 kDa])) [PolyArg12Cbp16kDa] | N
6 | RRRRRRRRRRRRC-[Maleimide-Dextran5k] (RRRRRRRRRRRRC([maleimide-dextran 5 kDa])) [PolyArg12C-Dextran5000Da] | N
7 | RRRRRRRRRRRRC-[Maleimide-PEG2000] (not fully specified (residue 13); printed as RRRRRRRRRRRRC-[Maleimide-PEG2000]) [PolyArg12C-PEG2000Da] | N
8 | RRRRRRRRRRRRC-[Maleimide-PEG5000] (not fully specified (residue 13); printed as RRRRRRRRRRRRC-[Maleimide-PEG5000]) [PolyArg12C-PEG5000Da] | N
9 | [Maleimide-BranchedPEG1.5kda]-CRRRRRRRRRRRRC-[Maleimide-BranchedPEG1.5kda] ({Maleimide‑BranchedPEG1.5kda}-CRRRRRRRRRRRRC-{Maleimide‑BranchedPEG1.5kda}; not fully specified (residues 1, 14); printed as [Maleimide-BranchedPEG1.5kda]-CRRRRRRRRRRRRC-[Maleimide-BranchedPEG1.5kda]; cysteine pairing not given here) [CPolyArg12Cbp1.5kDa] | N
10 | [PEG12]RRRRRR [PEG12PolyArg6] | N
11 | [PEG12]RRRRRRC (N-terminal PEG12; MOD_RES 1 N-terminal PEG12 spacer) [PEG12PolyArg6C] | N
12 | [PEG12]RRRRRRRRRRRR (N-terminal PEG12; MOD_RES 1 N-terminal PEG12 spacer) [PEG12PolyArg12] | N
13 | [PEG12]RRRRRRRRRRRRC (N-terminal PEG12; MOD_RES 1 N-terminal PEG12 spacer) [PEG12PolyArg12C] | Y
14 | [PEG12]RRRRRRRRRRRRRRR ([PEG12′]RRRRRRRRRRRRRRR) [PEG12PolyArg15] | Y
15 | [PEG12]RRRRRRRRRRRRRRRRRR ([PEG12′]RRRRRRRRRRRRRRRRRR) [PEG12PolyArg18] | Y
16 | [PEG12]RdRdRdRdRdRdRdRdRd [PEG12PolyArg9d] | N
17 | [PEG12]RdRdRdRdRdRdRdRdRdRdRdRd (RRRRRRRRRRRR; N-terminal PEG12; D-arginines; MOD_RES 1 N-terminal PEG12 spacer; MOD_RES 1..12 D-Arginine) [PEG12PolyArg12{d}] | N
18 | [PEG12][PEG12]RRRRRRRRR [PEG24PolyArg9] | N
19 | [PEG12][PEG12]RRRRRRRRRRRR (N-terminal PEG24; MOD_RES 1 N-terminal PEG24 spacer) [PEP24PolyArg12] | N
20 | [PEG12][PEG12]RRRRRRRRRRRRC (N-terminal PEG24; MOD_RES 1 N-terminal PEG24 spacer) [PEG24PolyArg12C] | N
21 | [PEG1000]-RRRRRRRRRRRR (PEG1000-RRRRRRRRRRRR) [PEG1000DaPolyArg12] | N
22 | [PEG2000]-RRRRRRRRRRRR (PEG2000-RRRRRRRRRRRR) [PEG2000DaPolyArg12] | N
23 | [PEG5000]-RRRRRRRRRRRR (PEG5000-RRRRRRRRRRRR) [PEG5000DaPolyArg12] | N
